# AlphaSeq binding of Ab-14 light chain variants to a spike HR2 peptide

Source: Li et al. 2023 (doi:10.1038/s41467-023-39022-2), MIT Lincoln Laboratory and A-Alpha Bio; data file from the FLAb repository.

Target: peptide PDVDLGDISGINAS, taken from heptad repeat 2 (HR2) of SARS-CoV-2 spike.

Parent scFv Ab-14: VH joined to VL by a 15-residue (Gly4Ser)3 linker. Changes lie in the light chain CDRs alone.
VH: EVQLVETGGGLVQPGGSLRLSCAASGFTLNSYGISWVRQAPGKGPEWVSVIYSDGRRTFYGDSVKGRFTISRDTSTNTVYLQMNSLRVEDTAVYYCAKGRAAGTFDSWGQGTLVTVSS
VL: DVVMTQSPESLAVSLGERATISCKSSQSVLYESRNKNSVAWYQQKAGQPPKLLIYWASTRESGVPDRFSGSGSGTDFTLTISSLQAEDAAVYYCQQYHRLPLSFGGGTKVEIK

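Phage display of a naive human antibody library on the peptide gave the parent. This is the validation round: designs drawn from the data on random variants, tested in the same kind of assay. Group labels follow the data file (Rand: our label for a block that the file lists under HC and that is probably the random mutants of the ten best first-round binders; En: ensemble of fine-tuned language models; GP: Gaussian process model; HC: hill climbing; Gen: genetic algorithm; Gibbs: Gibbs sampling; a sequence that several methods proposed may carry one label only). The scFvs were displayed on barcoded MATa yeast, the peptide on MATalpha yeast. The frequency of each diploid, read from paired DNA barcodes, reflects how well the two displayed proteins bind. Each replicate has its own calibration line, from reference interactions of the BCL2 family. There are six technical replicates.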

Variants are written as CDR1, CDR2 and CDR3 of the light chain (limits as in the source). Parent: KSSQSVLYESRNKNSVA, WASTRES, QQYHRLPLS. This list holds designs with more than six substitutions. The Kd shown is the geometric mean over detected replicates; a lower Kd is a better binder. Where no diploid with the target was found in any replicate, the entry reads "no signal": below detection, most likely a poor binder, though not proof of it. The parent sequence was in this pool as ten entries: three were never detected, three once, and four in most replicates, with averages from 2.2 nM to 240 nM. In the paper, a design with two or fewer of six values counts as a poor binder. Three control strains display no target. For all light chain designs, 4% of the pairings with them gave a signal, with a median of 430 nM and one signal in twenty below 38 nM, so weak values seen in few replicates may be background. For each scFv, signals with the empty controls are counted beside the result. Values of this round are not directly comparable with the first-round values of the same sequences.

The variant QINMEMHHDLDDEQNVA | DAMTEVK | QQYGRLPLS [En_Gibbs] showed 350 nM (3 of 6 replicates; controls 1 of 18). The variant HISYSMQHLTKNKNSVA | NQQTRES | QQYHMLPLS [En_HC] showed 22 nM (1 of 6 replicates; controls 0 of 18). For KLRWSMLYEDRNKNSVA | NASQRCS | QQYHRLPLS [GP_Gibbs], the assay gave 870 pM (6 of 6 replicates; controls 0 of 18). For KLQFLELQLSRNKNSVA | SASTRES | QQYHRLPLS [GP_Gibbs], the assay gave 160 nM (3 of 6 replicates; controls 0 of 18). The variant RLGMNFTWPGNARQSVA | EIQKAID | QQYAHLPLS [En_Gibbs] gave no signal (0 of 6 replicates; controls 0 of 18).

With MLSEVLHMLGVKKNSIA | DLVIRAN | QQYHRLPLM [En_Gen] the result was no signal (0 of 6 replicates; controls 0 of 18). With KLGSMVLLEHGNTNSIA | QQSTREE | QQYDRLPLS [En_HC] the result was 1.1 nM (6 of 6 replicates; controls 0 of 18). The variant NLVEMEGTNQTKGGNIA | SVDQRMS | QQYQRLPLI [En_Gibbs] showed 12 nM (6 of 6 replicates; controls 0 of 18). The variant KQQQSDEGMQRNKNSVA | EASTRCM | QQYHRLPLS [GP_Gibbs] gave 600 pM (6 of 6 replicates; controls 1 of 18). The variant MIGQVAFGLSRKANSVA | DNSTRED | QQYDRLPLS [En_Gen] gave 770 nM (2 of 6 replicates; controls 1 of 18).

The variant HMSMLTLMGSRQRNSVA | QMTTREN | QQYDRLPLV [En_Gen] gave 230 nM (4 of 6 replicates; controls 0 of 18). For TISQLWNMGTFAINSVA | QAEIRNA | QQYDRLPLA [En_Gen], the assay gave 30 nM (6 of 6 replicates; controls 0 of 18). With IVSQLMLWGYKAKNSIA | EAELRLN | QQYDRLPLF [En_Gen] the result was 220 nM (1 of 6 replicates; controls 0 of 18). For QLSMITGHQSVSKNNVA | EMETREE | QQYDRLPLS [En_Gen], the assay gave 3.4 nM (6 of 6 replicates; controls 1 of 18). With KLSQSVEYESRLKNNVA | NASQRLE | QQYHRLPLS [GP_Gibbs] the result was 3.9 nM (6 of 6 replicates; controls 1 of 18).

With DLTVNDNGISQMESSIA | SGVEKCT | QQYSRLPLA [En_Gibbs] the result was 1.1 nM (6 of 6 replicates; controls 2 of 18). With MIGKGLMGESRAKNSIA | QASLRED | QQYHRLPLI [En_HC] the result was 1.9 nM (6 of 6 replicates; controls 0 of 18). For KIQQVMAGFKNEENNIA | SGAVRLW | QQYLRLPFI [En_Gibbs], the assay gave 13 nM (6 of 6 replicates; controls 0 of 18). The variant HLSDTVMQGSYYRNSVA | QESTRAD | QQYHRLPLS [En_HC] showed 8.6 nM (6 of 6 replicates; controls 0 of 18). With KISYNFLIESRNLNSVA | EMTTREY | QDYDRLPLS [En_HC] the result was 40 nM (1 of 6 replicates; controls 0 of 18).

The variant AISQMLEPAAQNSSSIA | EADRVTE | QQYHKLPLT [En_Gibbs] gave 190 nM (6 of 6 replicates; controls 0 of 18). For IVSQLMLWGLHAKNSIA | EAEMRTN | QQYERLPLF [En_Gen], the assay gave 390 pM (6 of 6 replicates; controls 0 of 18). The variant KIGMTLNQLMHKKNNVA | DLVERAN | QQYHRLPLS [En_Gen] gave 4.9 nM (6 of 6 replicates; controls 0 of 18). With KLGMWMYEPTEAKYAVA | QDEMRVH | QQYDRLPLI [En_Gibbs] the result was 100 nM (2 of 6 replicates; controls 0 of 18). The variant KLYQSEGYESRMDNNVA | NASLRES | QQYHRLPLS [GP_Gibbs] showed 1.7 nM (6 of 6 replicates; controls 6 of 18).

With KISMLYNYESTNKNNIA | EMTTRES | QHYHRLPLS [En_HC] the result was 21 nM (6 of 6 replicates; controls 0 of 18). For KFSYSVLYEERNQNSVA | SASQREQ | QQYHRLPLS [GP_Gibbs], the assay gave 1.1 nM (6 of 6 replicates; controls 2 of 18). With SLSHDQGDETNHWENVA | QDNYRAN | QDYSRLPLS [En_Gibbs] the result was 360 nM (6 of 6 replicates; controls 1 of 18). The variant MISQLMNMGQFAINSVA | QASIRNE | QQYDRLPLE [En_Gen] showed 2.8 nM (6 of 6 replicates; controls 0 of 18). With MISQLFMYGSRNYNSVA | QASTRES | QQYDRLPLI [En_HC] the result was 230 nM (6 of 6 replicates; controls 1 of 18).

For SMETLSQGMRLNWSAVA | EAHTLYQ | QYYARLPLS [En_Gibbs], the assay gave no signal (0 of 6 replicates; controls 1 of 18). The variant HITSNMFGFGGVANNVA | ETNTLMV | QQYSKLPLM [En_Gibbs] showed 5.1 nM (6 of 6 replicates; controls 2 of 18). With KLSQSTLFFGHAINSVA | EMETREN | QQYDRLPLS [En_HC] the result was 4.4 nM (6 of 6 replicates; controls 0 of 18). The variant MVTQMAMTGMKNKRSVA | NATTRET | QQYHRLPLI [En_Gen] showed 25 nM (6 of 6 replicates; controls 0 of 18). With VLMGWGADSIQHANSIA | DVDLVDM | QQYAHLPLS [En_Gibbs] the result was 71 nM (6 of 6 replicates; controls 0 of 18).

For MMLTGDPLQLAAQNAVA | NANLAMT | QHYFRLPLV [En_Gibbs], the assay gave no signal (0 of 6 replicates; controls 0 of 18). With KLQFSCLYESRNKNSVA | NASYRSS | QQYHRLPLS [GP_Gibbs] the result was 3.1 nM (6 of 6 replicates; controls 2 of 18). The variant HSNPWVLYESLNKNSVQ | NASTRES | QQYHRLPLS [Rand] showed 120 nM (6 of 6 replicates; controls 0 of 18). With KISQSVNVGTKNKNSLA | EMSTREF | QDYHRLPLS [En_HC] the result was 5.6 nM (6 of 6 replicates; controls 0 of 18). For QLSMISGHASMIKNNVA | EMETREN | QQYDRLPLS [En_Gen], the assay gave 11 nM (6 of 6 replicates; controls 0 of 18).

With IMSQSVLGESRNINSVA | QTSEREY | QQYDRLPLS [En_HC] the result was 11 nM (5 of 6 replicates; controls 0 of 18). With KLSQATRMESRNKASVA | ENSTRGE | QQYFRLPLS [En_HC] the result was 920 pM (6 of 6 replicates; controls 1 of 18). With TISQSFMMENQFKNSVA | QASTREQ | QCYDRLPLS [En_HC] the result was 340 nM (6 of 6 replicates; controls 3 of 18). With ALRQKGFYLHGDRQNIA | HSDTRAA | QQYSMLPLA [En_Gibbs] the result was 1.2 nM (6 of 6 replicates; controls 0 of 18). For SLDSYVGYDLQNKKNIA | EETRVDR | QQYAHLPLM [En_Gibbs], the assay gave 9.7 nM (6 of 6 replicates; controls 0 of 18).

With KLSMSMLMEQRHKNSVA | ENSTREE | QHYHRLPLS [En_HC] the result was no signal (0 of 6 replicates; controls 0 of 18). With RISRHVYDETNTYENVA | HEHIRAN | QQYSRLPLS [En_Gibbs] the result was 42 nM (2 of 6 replicates; controls 0 of 18). With IVSQLMMWGMHAKNSIA | EAVTRIN | QQYDRLPLI [En_Gen] the result was 81 nM (4 of 6 replicates; controls 1 of 18).

Picked from the list: the 5 lowest averages where every replicate gave a value.

Variant IVSQLMLWGLHAKNSIA | EAEMRTN | QQYERLPLF [En_Gen] gave 390 pM (6 of 6 replicates; controls 0 of 18).
Variant KQQQSDEGMQRNKNSVA | EASTRCM | QQYHRLPLS [GP_Gibbs] gave 600 pM (6 of 6 replicates; controls 1 of 18).
Variant KLRWSMLYEDRNKNSVA | NASQRCS | QQYHRLPLS [GP_Gibbs] gave 870 pM (6 of 6 replicates; controls 0 of 18).
Variant KLSQATRMESRNKASVA | ENSTRGE | QQYFRLPLS [En_HC] gave 920 pM (6 of 6 replicates; controls 1 of 18).
Variant KLGSMVLLEHGNTNSIA | QQSTREE | QQYDRLPLS [En_HC] gave 1.1 nM (6 of 6 replicates; controls 0 of 18).